Antibody variant affinities, Ab-14 heavy chain, assay B

Data: MIT Lincoln Laboratory AlphaSeq set, Li et al. 2023, doi:10.1038/s41467-023-39022-2, as distributed in FLAb.

Binding partner: SARS-CoV-2 spike HR2 peptide, sequence PDVDLGDISGINAS.

Each scFv is VH, the linker GGGGSGGGGSGGGGS, VL, as in the parent Ab-14, and differs from it in the CDRs of the heavy chain only.
VH: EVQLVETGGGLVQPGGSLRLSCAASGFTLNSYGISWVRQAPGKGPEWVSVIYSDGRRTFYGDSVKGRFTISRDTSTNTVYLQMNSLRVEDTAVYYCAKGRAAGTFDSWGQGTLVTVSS
VL: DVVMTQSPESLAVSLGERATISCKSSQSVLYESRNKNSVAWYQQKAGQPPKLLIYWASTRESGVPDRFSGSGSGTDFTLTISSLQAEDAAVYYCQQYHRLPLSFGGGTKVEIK

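The parent was found by panning a naive human phage display library on the peptide. This is the validation round: designs drawn from the data on random variants, tested in the same kind of assay. Group labels follow the data file (Ctrl: baseline library sampled from a position-specific scoring matrix, with some repeated check sequences; Rand: our label for a block that the file lists under HC and that is probably the random mutants of the ten best first-round binders; En: ensemble of fine-tuned language models; GP: Gaussian process model; GPLM: also part of the Gaussian process libraries; HC: hill climbing; Gen: genetic algorithm; Gibbs: Gibbs sampling; a sequence that several methods proposed may carry one label only). The assay is AlphaSeq: two haploid yeast populations carry antibody and antigen on their surface. Mating (16 h, 30 °C) was followed by selection of diploids and sequencing of their barcodes. Scores were corrected for input abundance and mapped to Kd with protein pairs of known affinity run in the same pool. There are six technical replicates.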

The parent's heavy chain CDRs are GFTLNSYGIS, VIYSDGRRTFYGDSVK, GRAAGTFDS; each variant's own CDRs replace them letter for letter.
Values are apparent Kd, the geometric mean of the replicates that gave a signal; lower means stronger binding.
A pair that was not seen in any replicate is written "no signal"; this usually means weak binding, but a binder can also be missed.
A sequence measured in both rounds can read differently, since the two assays cover different ranges.

| # | Kd (apparent) | detected | CDR-H1 | CDR-H2 | CDR-H3 | group |
|---|---|---|---|---|---|---|
| 1 | 270 pM | 6 of 6 | GFDLNEYGIS | VIYADGQRTVYADSVK | GNVAGTFDI | En_Gen |
| 2 | 1.2 nM | 10 of 12 | GFDLNSYGIS | VIYSDGRRTFYGDSVK | GHAAGTFDS | Ctrl+GPLM_Gen |
| 3 | 13 nM | 6 of 6 | GFDLDEYGIS | VIYADGSRTAYSDSVK | GNQAGTFDV | En_Gen |
| 4 | 570 pM | 6 of 6 | GFDLNEYGIS | VIYADGQRTAYADSVK | GKVAGTFDQ | En_HC |
| 5 | 480 pM | 6 of 6 | GFDLDEYGIS | VIYADGMRTAYADSVK | GTNAGTFDL | En_Gen |
| 6 | no signal | 0 of 6 | GFTLNDYGIS | VIYSDGLRTFYGDSVK | GRQAGTFDS | Ctrl |
| 7 | 1.5 nM | 6 of 6 | GFTLNEYGIS | VIYSDGRRTFYHDSVK | GRAAGTFDS | GPLM_Gen |
| 8 | no signal | 0 of 6 | GFDLTEYGIS | VIYADGRRTQYQDSVK | GLNGGIIVV | En_Gibbs |
| 9 | 260 nM | 1 of 6 | GFTLEDYGIS | VIYSDGRRTFYGDAVK | GRVAGFFDS | Ctrl |
| 10 | 270 nM | 1 of 6 | KFTLNSYGIS | VIYSDGRRTFYQDSVK | GQTAGTFDS | GP_HC |
| 11 | no signal | 0 of 6 | GFTLNSYGIS | VIYSDGRRTFYGDEVK | GRAAGTFDP | Ctrl |
| 12 | no signal | 0 of 6 | GFDLNSYGIS | VIYSDGRRTFYLLSVK | GRAAGWFNS | Rand |
| 13 | no signal | 0 of 6 | GFDLEDYGIS | VIYADGKRSFVSNNVK | GQQGNAFSM | En_Gibbs |
| 14 | no signal | 0 of 6 | GFTPNSYGIS | VIYSDGRRTFYDDSVK | GRAGGTFIS | Ctrl |
| 15 | no signal | 0 of 6 | GFTLNSYGIS | VIYSDGRRTFYQDSVK | GREAGTFDT | GPLM_Gen |
| 16 | 4.6 nM | 6 of 6 | GFELNSYGIS | VIYSDGRRTFYSDHVK | GKTAGTFDS | GP_Gibbs |
| 17 | 2.4 µM | 1 of 6 | GKSVDEYGIS | VIYADGMRAEYQQSVK | GHTGGIFFV | En_Gibbs |
| 18 | 810 pM | 6 of 6 | GFDLNEYGIS | VIYADGSRKAYADDVK | GENAGTFDV | En_Gen |
| 19 | 14 nM | 6 of 6 | GFTLNSYGIS | VIYSDGRRTFYGDSVK | GLLAGTFDS | GP_HC |
| 20 | 2.2 nM | 6 of 6 | GFSLNSYGIS | VIYSDGRRTFYGDSVK | GQVAGTFDT | GPLM_Gibbs |
| 21 | no signal | 0 of 6 | CFTLNSYGIS | VIYPDGRRKFYGDSVK | GRAAGTNKS | Rand |
| 22 | 7.0 nM | 1 of 6 | GFTLNDYGIS | VIYSDGRRTFYGDAVK | GRTAGTFDS | GPLM_Gen |
| 23 | 1.6 nM | 6 of 6 | GFTLGSYGIS | VIYADGRRTEYGDSVK | GRWAGTFDS | Ctrl |
| 24 | no signal | 0 of 6 | GFELNSYGIS | VIYSDGRRTFYGDSVK | GRAAHTFDS | Ctrl |
| 25 | 380 pM | 6 of 6 | GFDLNEYGIS | VIYADGVRTFYSDSVK | GTVAGTFDS | En_HC |
| 26 | 15 nM | 6 of 6 | GFDLNSYGIS | VIYSDGRRTFYADWVK | GQAAGTFDS | GP_Gibbs |
| 27 | 460 pM | 6 of 6 | GFDLNEYGIS | VIYADGMRTAYVDSVK | GTNAGTFDV | En_Gen |
| 28 | 4.3 nM | 6 of 6 | GFDLNSYGIS | VIYSDGRRTFYGDQVK | GQTAGTFDD | GP_Gibbs |
| 29 | 1.3 nM | 6 of 6 | GFDLDEYGIS | VIYADGMRTAYADSVK | GETAGTFDT | En_Gen |
| 30 | no signal | 0 of 6 | GQDLEEYGIS | VIYADGIRTVYDQSVK | GHKGTTFYV | En_Gibbs |
| 31 | 1.4 nM | 6 of 6 | GFQLNQYGIS | VIYSDGRRTFYSDSVK | GRAAGTFDS | GPLM_HC |
| 32 | no signal | 0 of 6 | GFNLDEFGIS | VIYADGMRRAYSDEVK | GGFSDILLM | En_Gibbs |
| 33 | no signal | 0 of 6 | SFELNSYGIS | VIYSDGRRTFYGDSVK | GQTAGTFDD | GP_Gibbs |
| 34 | 33 nM | 6 of 6 | GFDLNEYGIS | VIYADGVRTAYSDSVK | GNTAGTFDT | En_Gen |
| 35 | 82 nM | 6 of 6 | GFELNSYGIS | VIYSDGRRTFYVDSVK | GKIAGTFDS | GP_Gibbs |
| 36 | 62 nM | 2 of 6 | GFDLNSYGIS | VIYSDGRRTFYIDSVK | GRAAGTFNK | GP_HC |
| 37 | 350 pM | 6 of 6 | GFKLNEYGIS | VIYSDGRRTFYADSVK | GRTAGTFDS | GP_Gibbs |
| 38 | 27 nM | 6 of 6 | GFTLNEYGIS | VIYSDGRRTFYGDHVK | GRTAGTFMS | GP_Gibbs |
| 39 | no signal | 0 of 6 | GFNLNEYGIS | VIYADGKRYEYTDSVK | SGVVGKVLY | En_Gibbs |
| 40 | no signal | 0 of 6 | GFHLNSYGIS | VIYSDGVRTFYGDSVK | GRAAGTFDD | Ctrl |
| 41 | no signal | 0 of 6 | GFTLDSYGIS | VIYSDGRRTFYGDSVK | GRAAGTFTQ | GP_HC |
| 42 | 71 nM | 1 of 6 | GYSLNEYGIS | VIYSDGRRTFYGDSVK | GRNAGTFDS | GP_Gibbs |
| 43 | 180 nM | 6 of 6 | GFTVNSYGIS | VIYSDGRRTFYGDSVK | GREAGTFDS | Ctrl |
| 44 | 31 nM | 6 of 6 | GFELEEYGIS | VIYADGQRTFYADNVK | GGVDTDTRY | En_Gibbs |
| 45 | 370 pM | 6 of 6 | GFDLDEYGIS | VIYADGMRTAYSDSVK | GNLAGTFDV | En_Gen |
| 46 | no signal | 0 of 6 | GFTLNEYGIS | VIYSDGRRTFYTDSVK | GRFAGTFIS | GP_HC |
| 47 | 540 pM | 6 of 6 | GFDLDEYGIS | VIYADGVRTAYADNVK | GEVAGTFDV | En_Gen |
| 48 | 190 pM | 6 of 6 | GFTLNSYGIS | VIYADGRRTFYGDSVK | GEAAGTFDK | GPLM_Gen |
| 49 | no signal | 0 of 6 | GFDLDEYGIS | VIYADGVREAYIDSVK | GNWSGTDMY | En_Gibbs |
| 50 | 750 pM | 6 of 6 | GFDLNEYGIS | VIYADGQRTAYADDVK | GGNAGTFDV | En_Gen |
| 51 | 8.8 nM | 6 of 6 | GFTLNSYGIS | VIYSDGRRTFYSDSVK | GQAGGTFDV | GP_HC |
| 52 | 860 pM | 6 of 6 | GFDLNEYGIS | VIYADGMRQAYADSVK | GNNAGTFDV | En_Gen |
| 53 | 340 nM | 1 of 6 | GFDLEDYGIS | VIYADGKRSFVSNNVK | GQQGNFFSM | En_Gibbs |
| 54 | no signal | 0 of 6 | GFTLNSYGIS | VIYSDGRRTFYDDSVK | GQTAGTFDR | GP_HC |
| 55 | 880 pM | 6 of 6 | GFDLDEYGIS | VIYADGRRTFYADSVK | GTEAGTFDA | En_HC |
| 56 | 5.9 nM | 6 of 6 | GFDLESYGIS | VIYSDGRRTFYGDSVK | GKAAGTFDT | Ctrl |
| 57 | 1.1 nM | 6 of 6 | GFDLNEYGIS | VIYADGRRTFYSDSVK | GTAAGTFDQ | En_HC |
| 58 | no signal | 0 of 6 | VFDLNSYGIS | VIYFKGRRWFYGDSVK | GRAAGWFNS | Rand |
| 59 | no signal | 0 of 6 | GFTLNSYGIS | VIYSDGQRTFYGDSVK | GRAKDIFDS | Ctrl |
| 60 | no signal | 0 of 6 | GFTLNEYGIS | VIYSDGRRTFYGDSVK | GRAYWTFDS | Ctrl |
| 61 | 8.5 nM | 6 of 6 | GFDLNSYGIS | VIYSDGRRTAYGDSVK | GRAAGTFNS | GPLM_HC |
| 62 | 67 nM | 1 of 6 | GFTLNDYGIS | VIYSDGRRTFYSDSVK | GRAAVTFDS | GP_HC |
| 63 | no signal | 0 of 6 | GFTLNSYGIS | VIYSDGMRTFYGDSVK | ARAAGTFLA | Ctrl |
| 64 | 12 nM | 6 of 6 | GFNLNSYGIS | VIYSDGRRTFYADRVK | GQAAGTFDS | GPLM_Gen |
| 65 | 1.6 nM | 6 of 6 | GFTINMYGIS | VIYADGRRTFYGDSVK | GRAAGTFDS | Ctrl |
| 66 | 690 pM | 6 of 6 | GFDLNEYGIS | VIYADGMRTYYADSVK | GSNAGTFDM | En_Gen |

The first 4 variants above that were never detected:

CDR-H1	CDR-H2	CDR-H3	group	Kd (apparent)	detected
GFTLNDYGIS	VIYSDGLRTFYGDSVK	GRQAGTFDS	Ctrl	no signal	0 of 6
GFDLTEYGIS	VIYADGRRTQYQDSVK	GLNGGIIVV	En_Gibbs	no signal	0 of 6
GFTLNSYGIS	VIYSDGRRTFYGDEVK	GRAAGTFDP	Ctrl	no signal	0 of 6
GFDLNSYGIS	VIYSDGRRTFYLLSVK	GRAAGWFNS	Rand	no signal	0 of 6

A sequence that the file lists under several names has all its replicates pooled.
Empty control strains, which show no peptide, gave a signal in 1% of pairings with all heavy chain designs; the median was 120 nM and 95% of these signals were weaker than 7.0 nM. No background was subtracted.
The authors averaged sequences with at least three values out of six and counted those with two or fewer as poor binders.
The parent sequence was in this pool as ten entries: three were never detected, three once, and four in most replicates, with averages from 2.2 nM to 240 nM.